Test results reported in ChEMBL document CHEMBL1138911 (Bioorg Med Chem Lett, 2006).

Target: Kappa-type opioid receptor (Homo sapiens, UniProt P41145)
Assay: Stimulation of [35S]GTP-gamma-S binding at kappa opioid receptor in human brain cortical membrane

CO[C@]12CC[C@@]3(C[C@@H]1[C@@](C)(O)C1CCC1)C1Cc4ccc(O)c5c4[C@@]3(CCN1CC1CC1)[C@H]2O5
EC50: 1.84 nM
